Consider one molecule from US11555013B2, “Potent and selective inhibitors of monoamine transporters; method of making; and use thereof” (priority 2013, dated 2023).

This assay addresses human SERT wild type (Homo sapiens (Human), UniProt P31645). The assay can be described thus: cell-based. Conditions: COS-7, read-out: hSERT WT Ki [S.E. interval] (nM).

As to `CNC(=O)CSC(c1ccccc1)c1ccccc1` [Compound 2g, 2-(Benzhydrylthio)-N-methylacetamide], the inhibition at 100 µM was below 50%.
